Values of other authors as cited in publication PMC4629469 (Bioorganic & medicinal chemistry letters, 2015).

System: μ-opioid receptor
Conditions: cited from earlier work

## CCOC(=O)C1(c2ccccc2)CCN(C)CC1 [pethidine]
  μ-opioid receptor agonist activity: weak μ-opioid receptor agonist activity
